# Laboratory results reported in patent US20130136691A1, “GASTRIN […] PEPTIDE COMPOUNDS” (priority 2008, published 2013).
# The chains behind the UniProt entries cited, without tags or fusion partners. Where a name states a change or a piece, a line headed by the entry shows the natural chain unless it says otherwise.
# UniProt P32247: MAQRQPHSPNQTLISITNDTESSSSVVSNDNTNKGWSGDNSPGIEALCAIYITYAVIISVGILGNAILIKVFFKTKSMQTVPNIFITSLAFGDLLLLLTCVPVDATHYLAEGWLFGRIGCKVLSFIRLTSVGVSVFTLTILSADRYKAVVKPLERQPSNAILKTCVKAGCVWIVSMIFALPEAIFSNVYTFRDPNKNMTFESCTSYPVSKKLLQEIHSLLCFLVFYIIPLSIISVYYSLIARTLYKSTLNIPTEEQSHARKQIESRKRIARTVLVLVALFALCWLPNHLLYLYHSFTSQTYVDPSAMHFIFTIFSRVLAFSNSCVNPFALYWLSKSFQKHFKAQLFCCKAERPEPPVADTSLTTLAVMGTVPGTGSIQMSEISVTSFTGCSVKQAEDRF
# Biological target: bombesin receptor subtype 3 (BB3-R) (human) (UniProt P32247)
# Assay: competition with 125I-universal ligand, receptor autoradiography on human tumour tissue
substance,measurement,value
"Universal ligand ([DTyr^6, βAla^11, Phe^13, Nle^14]-BBN(6-14)) (peptide)",IC50,1.1 nM
